Test [1] is filed under the species Homo sapiens. Nature of the test: Selectivity ratio of IC50 for N-terminal His6-tagged recombinant full length human p110alpha/untagged recombinant full length human p85alpha expressed in baculovirus infected Sf21 insect cells to IC50 for N-terminal His6-tagged recombinant full length human p110delta/untagged recombinant full length human p85alpha expressed in baculovirus infected Sf21 insect cells.

Test [2] is filed under the species Homo sapiens. Nature of the test: Selectivity ratio of IC50 for N-terminal His6-tagged recombinant full length human PI3Kgamma expressed in baculovirus infected Sf21 cells to IC50 for N-terminal His6-tagged recombinant full length human p110delta/untagged recombinant full length human p85alpha expressed in baculovirus infected Sf21 insect cells.
The species entered for test [3] is Homo sapiens. Nature of the test: Selectivity ratio of IC50 for N-terminal His6-tagged recombinant full length human p110beta/untagged recombinant full length human p85alpha expressed in baculovirus infected Sf21 insect cells to N-terminal His6-tagged recombinant full length human p110delta/untagged recombinant full length human p85alpha expressed in baculovirus infected Sf21 insect cells.

For test [4], the target named is PI3-kinase p110-delta/p85-alpha (Homo sapiens, UniProt O00329). The test can be described thus: Inhibition of N-terminal His6-tagged recombinant full length human p110delta/untagged recombinant full length human p85alpha expressed in baculovirus infected Sf21 insect cells using PIP2 as substrate preincubated for 15 mins followed by substrate addition and measured after 1 hr by HTRF assay.

In test [5] the target is T1, Phosphatidylinositol 4,5-bisphosphate 3-kinase catalytic subunit delta isoform (Homo sapiens, UniProt O00329).
T1 sequence (O00329 whole entry): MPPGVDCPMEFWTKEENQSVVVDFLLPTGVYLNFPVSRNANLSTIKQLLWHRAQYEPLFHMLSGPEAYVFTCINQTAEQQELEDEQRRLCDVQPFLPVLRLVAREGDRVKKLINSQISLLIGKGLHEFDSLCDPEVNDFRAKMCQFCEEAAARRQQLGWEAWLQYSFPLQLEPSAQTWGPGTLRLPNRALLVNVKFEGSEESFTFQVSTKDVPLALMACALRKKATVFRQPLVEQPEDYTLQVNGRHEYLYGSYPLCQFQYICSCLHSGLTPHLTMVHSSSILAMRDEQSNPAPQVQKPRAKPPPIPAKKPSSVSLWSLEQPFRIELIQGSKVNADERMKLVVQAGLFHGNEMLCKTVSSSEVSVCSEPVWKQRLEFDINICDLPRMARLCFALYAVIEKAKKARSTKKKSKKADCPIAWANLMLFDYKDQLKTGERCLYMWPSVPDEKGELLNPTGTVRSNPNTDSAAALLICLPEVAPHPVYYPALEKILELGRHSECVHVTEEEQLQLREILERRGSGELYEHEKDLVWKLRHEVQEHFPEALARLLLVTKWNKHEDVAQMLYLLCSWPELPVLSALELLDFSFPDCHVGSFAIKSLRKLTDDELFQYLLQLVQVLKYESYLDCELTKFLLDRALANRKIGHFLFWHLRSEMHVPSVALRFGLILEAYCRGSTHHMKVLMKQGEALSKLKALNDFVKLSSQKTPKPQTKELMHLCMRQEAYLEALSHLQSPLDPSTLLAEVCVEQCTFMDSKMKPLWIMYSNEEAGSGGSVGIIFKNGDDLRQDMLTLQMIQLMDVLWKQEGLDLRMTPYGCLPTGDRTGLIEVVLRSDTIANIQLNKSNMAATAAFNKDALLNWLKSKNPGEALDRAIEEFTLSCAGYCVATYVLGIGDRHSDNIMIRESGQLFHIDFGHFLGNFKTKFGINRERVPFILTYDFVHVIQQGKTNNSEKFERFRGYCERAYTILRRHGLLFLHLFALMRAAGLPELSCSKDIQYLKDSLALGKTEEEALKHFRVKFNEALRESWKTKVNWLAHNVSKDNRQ
The test can be described thus: Inhibition of PI3Kdelta in human Ramos cells assessed as reduction in anti-IgM-antibody-induced phosphorylation of AKT at Ser473 residue preincubated for 20 mins followed by anti-IgM antibody stimulation and measured after 30 mins by alphascreen assay. It is filed as cell-based. For orientation: Alpha assays give light when donor and acceptor beads are brought close together.

In test [6] the target is T1, Phosphatidylinositol 4,5-bisphosphate 3-kinase catalytic subunit delta isoform. The test can be described thus: Inhibition of PI3Kdelta in human whole blood assessed as reduction in antihuman IgE antibody-stimulated CD63 expression preincubated for 30 mins followed by antihuman IgE antibody stimulation and measured after 20 mins by FACS analysis. It is filed as tissue-based. A general note: A flow cytometer gives signals particle by particle.

This passage reports Ratio IC50 and IC50 results from ChEMBL document CHEMBL4346703, “Structure Overhaul Affords a Potent Purine PI3Kδ Inhibitor with Improved Tolerability” (J Med Chem, 2019).

As to `CCn1ncc(-c2nc3c(N4CCC(n5c(=O)[nH]c6ncccc65)CC4)ncnc3n2C)c1C`, the values for the Ratio IC50 in the test listed under Homo sapiens [1], in the test filed under Homo sapiens [2] and in the test listed under Homo sapiens [3] were 70, 1000 and 90, respectively.

The term IC50 denotes the concentration that inhibits the measured activity by half. For `CC[C@H](Nc1ncnc2c1nc(-c1cnn(CC)c1C)n2C)C(=O)N1CCOCC1`, the IC50 in test [4] was found to be 5.2 nM; in test [5], 106 nM.

As to `CC[C@H](Nc1ncnc2c1nc(-c1cnn(CC)c1C)n2C)C(=O)N1C[C@@H](C)O[C@@H](C)C1`, the IC50 in test [6] came out at 130 nM; in test [4], 2.8 nM; in test [5], 20 nM.

Consider `CCC(=O)N1CC[C@H](Nc2ncnc3c2nc(-c2cnn(CC)c2C)n3C)C1`, for which the Ratio IC50 in the test filed under Homo sapiens [1] was 57.

Turning to `CCn1ncc(-c2nc3c(N[C@@H](C)C(=O)N4CCOCC4)ncnc3n2C)c1C`, in the test filed under Homo sapiens [1], the Ratio IC50 turned out to be 17.
